The text below walks through data of PubChem BioAssay AID1778 (Sanford-Burnham Center for Chemical Genomics, 2009).

Chains of the proteins cited; added tags and fusions are not shown.
UniProt P41145, whole entry: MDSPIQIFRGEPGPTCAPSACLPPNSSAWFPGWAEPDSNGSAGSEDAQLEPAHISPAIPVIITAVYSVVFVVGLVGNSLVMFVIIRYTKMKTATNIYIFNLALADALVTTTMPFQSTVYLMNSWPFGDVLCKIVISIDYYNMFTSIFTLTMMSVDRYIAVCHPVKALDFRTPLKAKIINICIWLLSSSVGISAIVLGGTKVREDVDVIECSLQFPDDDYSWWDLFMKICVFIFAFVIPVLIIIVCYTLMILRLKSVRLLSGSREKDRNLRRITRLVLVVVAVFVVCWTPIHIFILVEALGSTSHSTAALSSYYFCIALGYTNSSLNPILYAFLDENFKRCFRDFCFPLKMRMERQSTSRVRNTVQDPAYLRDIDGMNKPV

Only a part is listed here, and it is no random draw. Potency and affinity values are given separately. Some structures show a salt or complex split into parts, the way the source records it. Active and inactive are the calls of the source. No stated cut-off is given here; in the data, active means inhibition above about 50%; inactive means the rest.

The target of this assay is Kappa-type opioid receptor (Homo sapiens) (UniProt P41145). Put plainly: kappa opioid receptor blockers – cell-based, luminescence, uHTS (AID 1778). The note with it: KOR beta-arrestin recruitment, antagonist mode, at 10 µM, hits give high values. On the technique in general: Arrestin recruitment assays detect the binding of arrestin to an activated receptor.
Take `CCc1ccc(OP(C)(=O)O)cc1`: the inhibition is inactive: 2.7%.

Consider `COc1ccccc1OP(C)(=O)Nc1ccc(C)cc1C` (centres undefined), for which the inhibition was inactive: 9.2%. On to `CP(=O)(Nc1ccccn1)Oc1ccccc1` (centres undefined), for which the inhibition was inactive: 10.3%. With `Cc1c(NP(C)(=O)Oc2ccc(C(C)C)cc2)c(=O)n(-c2ccccc2)n1C` (centres undefined), the inhibition was inactive: -12.2%. Regarding `CN(C)CCOC(=O)C(O)(c1ccccc1)C1CCCC1` (centres undefined), the inhibition was inactive: -8.3%. To `COc1ccc(OP(C)(=O)Nc2ccccn2)cc1` (centres undefined) belongs inactive: -6.7%; to `COc1ccccc1OP(C)(=O)Nc1ccc(Br)cc1` (centres undefined), inactive: 6.9%. Regarding `CP(=O)(Nc1ccc(Cl)cc1Cl)Oc1ccccc1` (centres undefined), the inhibition is inactive: 22%. With `CP(=O)(OCCOc1ccccc1)OCCOc1ccccc1`, the inhibition is inactive: 9.6%. The value for `Cc1nc2ccc3ccccc3c2o1.O=[N+]([O-])c1cc([N+](=O)[O-])c(O)c([N+](=O)[O-])c1` was inactive: -8.9%. Take `COc1ccc(OP(C)(=O)Nc2ccccc2Br)cc1` (centres undefined): the inhibition was inactive: -12.1%. For `COc1ccccc1OP(C)(=O)Nc1ccc(C)c(C)c1` (centres undefined), the inhibition is inactive: -18.9%.

Regarding `CCCCCOc1ccc(NP(C)(=O)Oc2ccc(Cl)cc2Cl)cc1` (centres undefined), the inhibition was inactive: -8.5%. For `O=[N+]([O-])c1cc([N+](=O)[O-])c(OC2CCCCC2O)c([N+](=O)[O-])c1` (centres undefined), the inhibition was inactive: 9.6%. `CP(=O)(Nc1ccccc1)Oc1ccc(F)cc1` (centres undefined): the inhibition is inactive: -18%.

Take `CCN(CC)CCCOC(=O)C(O)(c1ccccc1)C1CCCCC1` (centres undefined): the inhibition is inactive: -17.4%. The value for `COc1ccc(OP(C)(=O)Nc2ccc(SC(F)(F)F)cc2)cc1` (centres undefined) was inactive: -24.5%. Regarding `CCOC(=O)c1ccc(NP(C)(=O)Oc2ccc(F)cc2)cc1` (centres undefined), the inhibition is inactive: -6.4%. In the case of `COc1ccc2c(c1O)-c1c(O)c(OC)cc3c1[C@H](C2)[N+](C)(C)CC3.O=[N+]([O-])c1cc([N+](=O)[O-])c([O-])c([N+](=O)[O-])c1[O-]`, the inhibition was inactive: 19.7%.

As for `O=C(OCCN1CCN(CCOCc2ccccc2)CC1)C(O)(c1ccccc1)c1ccccc1`, the inhibition is inactive: -31.5%.

Turning to `O=C(OC1CN2CCC1CC2)c1ccc([N+](=O)[O-])cc1` (centres undefined), the inhibition was inactive: -1.3%. With `CC(C)c1ccc(OP(C)(=O)Nc2ccc(SC(F)(F)F)cc2)cc1` (centres undefined), the inhibition is inactive: 8.9%. As to `CP(=O)(Nc1ccccc1F)Oc1ccccc1` (centres undefined), the inhibition was inactive: -4.9%. For `Cc1ccccc1NP(C)(=O)Nc1ccccc1C`, the inhibition was inactive: 27.6%. With `CP(=O)(Nc1ccc2c(c1)OCCO2)Oc1ccccc1` (centres undefined), the inhibition is inactive: 5.6%.

In the case of `CCOP(C)(=S)SCC(=O)NC(C)(CC)C(=O)O` (centres undefined), the inhibition was inactive: 21.2%. As to `CP(=O)(Nc1ccc(SC(F)(F)F)cc1)Oc1ccc(F)cc1` (centres undefined), the inhibition is inactive: -8.2%. `Cc1cc(-c2cccc3ccccc23)c(C)cn1.O=[N+]([O-])c1cc([N+](=O)[O-])c(O)c([N+](=O)[O-])c1`: the inhibition is inactive: -27.4%. To `O=[N+]([O-])c1cc([N+](=O)[O-])c(NCC2CCS(=O)(=O)C2)c([N+](=O)[O-])c1` (centres undefined) belongs inactive: 48.2%; to `O=[N+]([O-])c1ccc(OP2(=O)COCCO2)cc1` (centres undefined), inactive: 19.8%.

Take `COc1ccc(NP(C)(=O)Oc2ccccc2OC)cc1` (centres undefined): the inhibition was inactive: 10.2%.

`CN(C)CCOC(=O)C(O)(c1ccccc1)C1CCCCC1` (centres undefined): the inhibition was inactive: 18.2%.

Take `CN(C)C1(CNC(=O)c2ccc(Cl)c(S(N)(=O)=O)c2)CCCCC1`: the inhibition is inactive: 7.5%. Consider `COc1ccc(OP(C)(=O)Nc2cccc(Br)c2)cc1` (centres undefined), for which the inhibition is inactive: 14.6%.

The term inhibition denotes the relative decrease from the control value, in per cent.
